According to ChEMBL document CHEMBL4842340, “Development of Cagrilintide, a Long-Acting Amylin Analogue” (J Med Chem, 2021):

What was measured:
Assay type in all cases: cell-based
[1] = Agonist activity at human AMY3R (CT+RAMP3) expressed in Hollex1 cells incubated for 3 hrs by luminescence assay; settings: Hollex1, 3 h
[2] = Agonist activity at human calcitonin receptor expressed in BHK570 cells assessed as increase in intracellular cAMP concentration incubated for 3 hrs in absence of albumin by CRE luciferase reporter gene assay; settings: BHK570, 3 h
Homo sapiens [3] = species on record: Homo sapiens; assay: Ratio of EC50 for human calcitonin receptor expressed in BHK570 cells to EC50 for human AMY3R (CT+RAMP3) expressed in Hollex1 cells
[4] = Agonist activity at rat AMY3R (CT+RAMP3) expressed in tk-ts13 cells assessed as increase in intracellular cAMP level incuabted for 25 mins by CRE luciferase reporter gene assay; settings: tk-ts13, 25 min
[5] = Agonist activity at rat calcitonin receptor expressed in BHK-13 cells assessed as increase in intracellular cAMP concentration incubated for 25 mins by CRE luciferase reporter gene assay; settings: BHK-13, 25 min
Rattus norvegicus [6] = species on record: Rattus norvegicus; assay: Ratio of EC50 for rat calcitonin receptor expressed in BHK-13 cells to EC50 for rat AMY3R (CT+RAMP3) expressed in tk-ts13 cells
[7] = Displacement of [125I]-amylin from human AMY3R (CTR+RAMP3) expressed in BHK-13 cells measured after 120 mins by scintillation proximity assay
[8] = Displacement of [125I]-calcitonin from human calcitonin receptor expressed in tk-ts 13 cells measured after 120 mins by scintillation proximity assay; settings: tk-ts13
Homo sapiens [9] = species on record: Homo sapiens; assay: Ratio of IC50 for displacement of [125I]-calcitonin from human calcitonin receptor expressed in tk-ts 13 cells to IC50 for displacement of [125I]-amylin from human AMY3R (CTR+RAMP3) expressed in BHK-13 cells
[10] = Displacement of [125I]-amylin from rat AMY3R (CTR+RAMP3) expressed in BHK-13 cells measured after 120 mins by scintillation proximity assay
[11] = Displacement of [125I]-calcitonin from rat calcitonin receptor expressed in tk-ts 13 cells measured after 120 mins by scintillation proximity assay; settings: tk-ts13
Rattus norvegicus [12] = species on record: Rattus norvegicus; assay: Ratio of IC50 for displacement of [125I]-calcitonin from rat calcitonin receptor expressed in tk-ts 13 cells to IC50 for displacement of [125I]-amylin from rat AMY3R (CTR+RAMP3) expressed in BHK-13 cells

EC50 [1]: 0.005 nM | EC50 [2]: 0.07 nM | EC50 [4]: 0.004 nM | EC50 [5]: 1.82 nM | IC50 [7]: 0.114 nM | IC50 [8]: 1.49 nM | IC50 [10]: 0.122 nM | IC50 [11]: 5.83 nM
Compound: CC[C@H](C)[C@H](NC(=O)[C@@H]1CCCN1C(=O)CNC(=O)[C@H](Cc1ccccc1)NC(=O)[C@H](CC(N)=O)NC(=O)[C@H](CC(N)=O)NC(=O)[C@H](CO)NC(=O)[C@H](CO)NC(=O)[C@H](Cc1c[nH]cn1)NC(=O)[C@@H](NC(=O)[C@H](CC(C)C)NC(=O)[C@H](Cc1ccccc1)NC(=O)[C@H](CC(N)=O)NC(=O)[C@H](C)NC(=O)[C@H](CC(C)C)NC(=O)[C@H](CCCNC(=N)N)NC(=O)[C@H](CCC(N)=O)NC(=O)[C@@H](NC(=O)[C@H](C)NC(=O)[C@@H]1CSSC[C@H](NC(=O)[C@@H](N)CCCCN)C(=O)N[C@@H](CC(N)=O)C(=O)N[C@@H]([C@@H](C)O)C(=O)N[C@@H](C)C(=O)N[C@@H]([C@@H](C)O)C(=O)N1)[C@@H](C)O)C(C)C)C(=O)N[C@@H](CC(C)C)C(=O)N1CCC[C@H]1C(=O)N1CCC[C@H]1C(=O)N[C@H](C(=O)N[C@@H](CC(N)=O)C(=O)N[C@H](C(=O)NCC(=O)N[C@@H](CO)C(=O)N[C@@H](CC(N)=O)C(=O)N[C@H](C(=O)N[C@@H](Cc1ccc(O)cc1)C(N)=O)[C@@H](C)O)C(C)C)[C@@H](C)O [PRAMLINTIDE]
Ratio EC50 (Homo sapiens [3]): 14 | Ratio EC50 (Rattus norvegicus [6]): 463 | Ratio IC50 (Homo sapiens [9]): 13 | Ratio IC50 (Rattus norvegicus [12]): 48
